From patent US6127420A, “L-N^5 -(1-imino-3-alkenyl) ornithine and related compounds and use thereof” (priority 1998, dated 2000)

What was measured:
nNOS = nNOS (Rattus norvegicus, UniProt P29476); details: read-out: nNOS Ki, 25° C., pH 7.4, initial rate conditions, duplicates agreed within ±5%
N=C(N)NCCC[C@H](N)C(=O)O = assay: purified protein, by the assay type; details: other: Km determined in the absence of inhibitor, iNOS; 25.0 °C

## CC(=N)NCCC[C@H](N)C(=O)O [L-NIO]
nNOS
  pKi: 5.77

## iNOS (Mus musculus)
N=C(N)NCCC[C@H](N)C(=O)O
  Km: 12.5 µM

pKi: −log10 of the molar value.
